## scFv variants of Ab-95 (light chain) against a SARS-CoV-2 spike peptide

Values reported by Engelhart et al. 2022, doi:10.1038/s41597-022-01779-4 (FLAb copy).

Antigen: PDVDLGDISGINAS, a 14-residue peptide of the SARS-CoV-2 spike HR2 region.

The variants keep the heavy chain, the linker and the frameworks of Ab-95 (scFv order VH, the linker GGGGSGGGGSGGGGS, VL).
VH: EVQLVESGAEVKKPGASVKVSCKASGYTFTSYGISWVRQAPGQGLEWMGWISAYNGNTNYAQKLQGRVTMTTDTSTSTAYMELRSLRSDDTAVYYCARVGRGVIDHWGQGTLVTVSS
VL: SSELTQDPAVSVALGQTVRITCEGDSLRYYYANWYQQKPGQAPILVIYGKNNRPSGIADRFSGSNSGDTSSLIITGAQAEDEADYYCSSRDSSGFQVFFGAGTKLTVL

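The starting antibody came from a phage panning campaign against this peptide. Library AAYL52 holds single substitutions and randomly drawn double and triple substitutions in the CDRs. Affinity was read by AlphaSeq, a pooled yeast mating assay with surface-displayed partners. Mating (16 h, 30 °C) was followed by selection of diploids and sequencing of their barcodes. Scores were corrected for input abundance and mapped to Kd with protein pairs of known affinity run in the same pool. Mating was done three times.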

The parent's light chain CDRs are EGDSLRYYYAN, GKNNRPS, SSRDSSGFQVF; each variant's own CDRs replace them letter for letter.
The read-out is the apparent dissociation constant on a log10 scale (nM): the lower, the stronger.
A mean of the replicates is given; it leaves out those without a signal.
"nd" means that the variant was in the library but no mating with the target was seen in that replicate; the authors take this as a sign of poor binding, and no number exists.
Empty control strains, which show no peptide, gave a signal in 28% of pairings with library AAYL52; the median was 3.91 and 95% of these signals were weaker than 2.90. No background was subtracted. The control count says in how many pairings with the empty strains this scFv gave a signal, with their mean in brackets.
In this assay the parent's reference entry averaged 2.31; its copy inside this library read 2.25.

log10 Kd, replicates | log10 Kd (nM), mean | control signals | CDR-L1 | CDR-L2 | CDR-L3
2.08 / 2.16 / 2.03 | 2.09 | 3/9 (4.06) | EGDSDRYRYPN | GKNNRPS | SSRDSSGFQVF
nd / nd / nd | nd | 2/9 (3.49) | EGDSLRYYYAN | GKNNRPS | SSRDSQAPQVF
1.66 / 1.66 / 1.22 | 1.51 | 5/9 (3.88) | EGDSLRYYGAN | GKDNRPC | SSRDSSGFQVF
4.06 / 3.63 / 4.59 | 4.09 | 1/9 (3.53) | EGDSLRYYYAN | GKNCRPS | SSRDPRGFQVF
5.23 / nd / nd | 5.23 | 1/9 (4.67) | HGDSLFYYYAN | GKLNRPS | SSRDSSGFQVF
2.29 / 2.26 / 2.03 | 2.19 | 5/9 (4.05) | EGDSLRYYYAN | GKNNRPS | GSRDTSGFQVH
nd / nd / nd | nd | 1/9 (3.90) | ERDSCRYYYAN | GKNKRPS | SSRDSSGFQVF
3.78 / 3.20 / 3.35 | 3.44 | 4/9 (3.65) | EGDKLRYYYAN | NKNNRPS | SSRDSSGFQQF
4.40 / nd / nd | 4.40 | 3/9 (4.12) | EGDSLRYYYAN | GKMNRPS | SERDSSGFQKF
nd / 3.03 / 2.16 | 2.59 | 1/9 (3.25) | ELDSLRRYYAN | GKNNRPS | SDRDSSGFQVF
nd / 5.49 / nd | 5.49 | 3/9 (3.89) | EQASLRYYYAN | GKNNRPS | ASRDSSGFQVF
3.40 / nd / nd | 3.40 | 0/9 | EYDSLRYYYAN | GKNNRPV | SSRDSSGFQVF
3.70 / 2.94 / 3.86 | 3.50 | 3/9 (3.38) | ENDSLRYGYFN | GKNNRPS | SSRDSSGFQVF
2.90 / 3.07 / 2.52 | 2.83 | 4/9 (4.17) | EGDSLEYYYAN | GKNNRPS | SSRRSSGFQVF
nd / nd / nd | nd | 1/9 (3.84) | EGNSLRYYYAY | GKNNRLS | SSRDSSGFQVF
2.74 / 4.27 / 3.46 | 3.49 | 3/9 (4.10) | EGDSLRYYYAN | GKNARAS | YSRDSSGFQVF
2.30 / 2.47 / 2.21 | 2.33 | 1/9 (3.29) | EGDSLRYYYAN | GKNNRSE | SSPDSSGFQVF
2.92 / 2.50 / 2.44 | 2.62 | 5/9 (3.59) | KGDSLQYYYAN | GKLNRPS | SSRDSSGFQVF
2.65 / 2.39 / 3.20 | 2.75 | 5/9 (4.53) | EGDSLRYYYPN | GKNNRPS | SSRWSSGFQIF
3.21 / 2.92 / 2.44 | 2.86 | 3/9 (3.56) | EGDSLRWYYAN | GKNNRPS | SSRDSRGFQEF
2.89 / 2.75 / 3.49 | 3.04 | 2/9 (3.58) | EGDSLRYRYAN | GKNNRPS | SSRDSSGFQVM
1.70 / 1.50 / 1.23 | 1.48 | 2/9 (4.14) | EGDSLRYNLAN | GKNNRGS | SSRDSSGFQVF
nd / 4.83 / nd | 4.83 | 3/9 (3.15) | EGDSLRYYYKN | GKNNRPS | YSRDSSHFQVF
3.11 / 2.88 / 2.99 | 2.99 | 5/9 (4.38) | GGDSLRYYYAN | GKNNRPS | SSRFQSGFQVF
3.01 / 3.12 / 2.08 | 2.73 | 1/9 (3.03) | EGDSLRYYYAN | GKNNVPS | SSSDSSGFQVK
3.27 / 4.99 / 4.06 | 4.11 | 3/9 (3.95) | EGDSLRYYYAN | GLNNRPS | CSRYSSGFQVF
2.46 / 2.42 / 2.30 | 2.39 | 4/9 (3.96) | EGKSLRYPYAN | GKNNRMS | SSRDSSGFQVF
2.81 / 2.47 / 3.13 | 2.80 | 2/9 (3.37) | EGASLGYYYAN | GKNNRPS | NSRDSSGFQVF
2.16 / 2.19 / 3.38 | 2.58 | 3/9 (4.41) | EGDSLRYYYAN | GKNNRPS | SSRDKSMFQVW
nd / nd / 2.92 | 2.92 | 3/9 (4.26) | EGDSLRYYYAN | FKNNAKS | SSRDSSGFQVF
nd / nd / 4.25 | 4.25 | 1/9 (3.65) | EGDSLRYYYHN | GSNNWPS | SSRDSSGFQVF
nd / nd / 4.35 | 4.35 | 2/9 (4.30) | EGDSCRYMYAN | GKNNRPT | SSRDSSGFQVF
2.99 / 3.80 / nd | 3.40 | 0/9 | EGLSLRYYYAN | MKNNRPS | FSRDSSGFQVF
3.69 / 2.43 / 3.28 | 3.13 | 1/9 (3.54) | TYDSLRYYKAN | GKNNRPS | SSRDSSGFQVF
nd / 4.87 / nd | 4.87 | 4/9 (4.43) | EGDSLRYYYSN | GKNNRNS | SSRDSSGFQPF
2.62 / nd / 2.15 | 2.38 | 0/9 | EGDSLRYYLAN | GVNNRPS | SSRDSSGFQYF
4.14 / nd / 4.40 | 4.27 | 6/9 (3.81) | EKDSLRYYYAN | GKNNTPS | SSRDWSGFQVF
nd / nd / nd | nd | 2/9 (4.11) | EGDSLRYYYAN | FKNNRPS | SWRDSSGIQVF
nd / 4.06 / 4.16 | 4.11 | 5/9 (3.34) | EGDSLRYYYAN | GNNNRNS | SSRDSSAFQVF
3.35 / 4.01 / 3.30 | 3.55 | 3/9 (3.99) | EGDSLRYYYAN | GVNNRPS | LSRDSSGFNVF
2.11 / 1.87 / 1.70 | 1.89 | 6/9 (3.68) | EGGSLRYGYAN | GKNNRPS | SSRDSSGFQVG
3.49 / 4.57 / 4.42 | 4.16 | 4/9 (3.88) | EGDSLRYYYAG | GKNNRPS | SSRDSSRFQVF
4.57 / 4.34 / 3.56 | 4.16 | 2/9 (4.01) | EGDSGRYYVAN | GKNNRPS | SSRDSSGFVVF
3.80 / nd / nd | 3.80 | 0/9 | EGDGLRYYYAQ | GKNDRPS | SSRDSSGFQVF
3.48 / 4.16 / 3.09 | 3.58 | 1/9 (3.67) | EGDSLRYYYAN | GKNNRGS | SSRTSYGFQVF
2.15 / 2.30 / 2.01 | 2.15 | 1/9 (3.25) | EGDSLRYYPAN | GKVNRPS | SSRDSSGFQVI
3.17 / 2.31 / 2.61 | 2.69 | 0/9 | EGDSLRYYYAN | GANNRPS | DSRDSSQFQVF
2.32 / 2.43 / 2.16 | 2.30 | 2/9 (3.67) | TGDSLRYYYAN | GKNPRPS | SSRDSSGRQVF
nd / nd / 4.19 | 4.19 | 0/9 | EGDMLRYYYAN | GKNNRPV | SSRDSSGFMVF
3.31 / nd / 3.44 | 3.37 | 3/9 (3.62) | ENDSLRYYYAN | GKNNRPS | SSRDNSGFQVT
5.16 / nd / nd | 5.16 | 0/9 | EGDSWRYYYAN | GKNYEPS | SSRDSSGFQVF

Excerpt, the first 7 entries:

CDR-L1	CDR-L2	CDR-L3	log10 Kd, replicates	log10 Kd (nM), mean	control signals
EGDSDRYRYPN	GKNNRPS	SSRDSSGFQVF	2.08 / 2.16 / 2.03	2.09	3/9 (4.06)
EGDSLRYYYAN	GKNNRPS	SSRDSQAPQVF	nd / nd / nd	nd	2/9 (3.49)
EGDSLRYYGAN	GKDNRPC	SSRDSSGFQVF	1.66 / 1.66 / 1.22	1.51	5/9 (3.88)
EGDSLRYYYAN	GKNCRPS	SSRDPRGFQVF	4.06 / 3.63 / 4.59	4.09	1/9 (3.53)
HGDSLFYYYAN	GKLNRPS	SSRDSSGFQVF	5.23 / nd / nd	5.23	1/9 (4.67)
EGDSLRYYYAN	GKNNRPS	GSRDTSGFQVH	2.29 / 2.26 / 2.03	2.19	5/9 (4.05)
ERDSCRYYYAN	GKNKRPS	SSRDSSGFQVF	nd / nd / nd	nd	1/9 (3.90)